ChEMBL document CHEMBL2069175, “Antiplasmodial activities of 4-aminoquinoline-statine compounds” (Bioorg Med Chem Lett, 2012)

Assay: Inhibition of beta hematin formation assessed as ratio of molar equivalents of compound to molar equivalents of hematin for 50% inhibition after 18 hrs
Format: functional

Structure (SMILES) | Ratio
CCCCNC(=O)C[C@H](O)[C@H](CC(C)C)NC(=O)[C@@H](NC(=O)c1ccc(Oc2ccc(C(=O)N[C@@H](CC(C)C)C(=O)N[C@@H](C)C(=O)NCCCNc3ccnc4ccccc34)cc2)cc1)[C@@H](C)CC | 5.16
CCCCNC(=O)C[C@H](O)[C@H](CC(C)C)NC(=O)[C@@H](NC(=O)c1ccc(Oc2ccc(C(=O)N[C@@H](C)C(=O)NCCCNc3ccnc4cc(Cl)ccc34)cc2)cc1)[C@@H](C)CC | 0.79
